The results in this text go back to ChEMBL document CHEMBL4002583, “Amino derivatives of platanic acid act as selective and potent inhibitors of butyrylcholinesterase” (Eur J Med Chem, 2017).

Structures are written as SMILES.

A short description of this assay: Selectivity ratio of Ki for equine serum BChE to Ki for electric eel AChE.
Turning to `CC(=O)O[C@H]1CC[C@]2(C)[C@H]3CC[C@@H]4[C@H]5[C@H](/C(C)=N/O)CC[C@]5(C(=O)O)CC[C@@]4(C)[C@]3(C)CC[C@H]2C1(C)C`, the Ratio Ki is over 2.4.
For `COC(=O)[C@]12CC[C@@H](/C(C)=N\O)[C@@H]1[C@H]1CC[C@@H]3[C@@]4(C)CC[C@H](OC(C)=O)C(C)(C)[C@@H]4CC[C@@]3(C)[C@]1(C)CC2` the value was over 6.
For `COC(=O)[C@]12CC[C@@H](/C(C)=N/O)[C@@H]1[C@H]1CC[C@@H]3[C@@]4(C)CC[C@H](OC(C)=O)C(C)(C)[C@@H]4CC[C@@]3(C)[C@]1(C)CC2` the value was over 1.4.
